Assay results from ChEMBL document CHEMBL1201862, “PubChem BioAssay data set” (2004).
Activity calls are given as the source filed them.

By UniProt entry, the sequences of proteins in these tests, tags left out. Where a name states a change or a piece, a line headed by the entry shows the natural chain unless it says otherwise.
UniProt P49760, whole entry: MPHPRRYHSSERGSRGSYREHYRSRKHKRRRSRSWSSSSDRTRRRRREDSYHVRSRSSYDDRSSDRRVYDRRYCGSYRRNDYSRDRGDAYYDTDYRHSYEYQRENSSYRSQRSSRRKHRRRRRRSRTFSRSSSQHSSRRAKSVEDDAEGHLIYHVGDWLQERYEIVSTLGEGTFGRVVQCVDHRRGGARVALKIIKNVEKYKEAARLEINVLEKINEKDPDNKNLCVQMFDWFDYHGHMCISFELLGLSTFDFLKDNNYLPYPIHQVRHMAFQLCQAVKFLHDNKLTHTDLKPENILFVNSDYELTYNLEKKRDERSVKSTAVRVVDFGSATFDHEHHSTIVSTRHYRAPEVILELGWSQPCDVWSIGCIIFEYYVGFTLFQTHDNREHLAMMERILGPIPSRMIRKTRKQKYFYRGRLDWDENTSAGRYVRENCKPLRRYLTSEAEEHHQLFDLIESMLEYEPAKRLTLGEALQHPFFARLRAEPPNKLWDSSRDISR
UniProt P04629: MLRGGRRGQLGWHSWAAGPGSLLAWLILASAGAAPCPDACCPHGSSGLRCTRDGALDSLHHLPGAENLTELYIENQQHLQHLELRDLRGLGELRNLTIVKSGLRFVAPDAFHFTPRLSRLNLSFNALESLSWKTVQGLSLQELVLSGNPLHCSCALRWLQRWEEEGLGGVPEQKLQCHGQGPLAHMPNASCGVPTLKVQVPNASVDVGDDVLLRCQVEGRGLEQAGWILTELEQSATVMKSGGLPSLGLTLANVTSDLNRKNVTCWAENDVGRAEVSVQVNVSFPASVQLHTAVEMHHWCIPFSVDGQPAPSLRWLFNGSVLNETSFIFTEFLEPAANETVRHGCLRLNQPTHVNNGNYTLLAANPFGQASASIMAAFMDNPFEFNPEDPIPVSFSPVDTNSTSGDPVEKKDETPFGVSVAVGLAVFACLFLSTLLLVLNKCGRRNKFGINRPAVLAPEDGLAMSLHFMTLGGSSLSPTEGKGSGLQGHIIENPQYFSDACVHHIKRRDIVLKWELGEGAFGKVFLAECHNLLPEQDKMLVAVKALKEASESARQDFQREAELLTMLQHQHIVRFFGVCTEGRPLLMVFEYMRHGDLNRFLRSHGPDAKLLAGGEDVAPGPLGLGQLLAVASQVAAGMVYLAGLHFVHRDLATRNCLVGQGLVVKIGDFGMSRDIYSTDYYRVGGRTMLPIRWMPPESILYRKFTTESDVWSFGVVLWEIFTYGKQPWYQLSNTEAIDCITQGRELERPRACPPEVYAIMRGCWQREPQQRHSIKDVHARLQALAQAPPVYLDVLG
UniProt P08581: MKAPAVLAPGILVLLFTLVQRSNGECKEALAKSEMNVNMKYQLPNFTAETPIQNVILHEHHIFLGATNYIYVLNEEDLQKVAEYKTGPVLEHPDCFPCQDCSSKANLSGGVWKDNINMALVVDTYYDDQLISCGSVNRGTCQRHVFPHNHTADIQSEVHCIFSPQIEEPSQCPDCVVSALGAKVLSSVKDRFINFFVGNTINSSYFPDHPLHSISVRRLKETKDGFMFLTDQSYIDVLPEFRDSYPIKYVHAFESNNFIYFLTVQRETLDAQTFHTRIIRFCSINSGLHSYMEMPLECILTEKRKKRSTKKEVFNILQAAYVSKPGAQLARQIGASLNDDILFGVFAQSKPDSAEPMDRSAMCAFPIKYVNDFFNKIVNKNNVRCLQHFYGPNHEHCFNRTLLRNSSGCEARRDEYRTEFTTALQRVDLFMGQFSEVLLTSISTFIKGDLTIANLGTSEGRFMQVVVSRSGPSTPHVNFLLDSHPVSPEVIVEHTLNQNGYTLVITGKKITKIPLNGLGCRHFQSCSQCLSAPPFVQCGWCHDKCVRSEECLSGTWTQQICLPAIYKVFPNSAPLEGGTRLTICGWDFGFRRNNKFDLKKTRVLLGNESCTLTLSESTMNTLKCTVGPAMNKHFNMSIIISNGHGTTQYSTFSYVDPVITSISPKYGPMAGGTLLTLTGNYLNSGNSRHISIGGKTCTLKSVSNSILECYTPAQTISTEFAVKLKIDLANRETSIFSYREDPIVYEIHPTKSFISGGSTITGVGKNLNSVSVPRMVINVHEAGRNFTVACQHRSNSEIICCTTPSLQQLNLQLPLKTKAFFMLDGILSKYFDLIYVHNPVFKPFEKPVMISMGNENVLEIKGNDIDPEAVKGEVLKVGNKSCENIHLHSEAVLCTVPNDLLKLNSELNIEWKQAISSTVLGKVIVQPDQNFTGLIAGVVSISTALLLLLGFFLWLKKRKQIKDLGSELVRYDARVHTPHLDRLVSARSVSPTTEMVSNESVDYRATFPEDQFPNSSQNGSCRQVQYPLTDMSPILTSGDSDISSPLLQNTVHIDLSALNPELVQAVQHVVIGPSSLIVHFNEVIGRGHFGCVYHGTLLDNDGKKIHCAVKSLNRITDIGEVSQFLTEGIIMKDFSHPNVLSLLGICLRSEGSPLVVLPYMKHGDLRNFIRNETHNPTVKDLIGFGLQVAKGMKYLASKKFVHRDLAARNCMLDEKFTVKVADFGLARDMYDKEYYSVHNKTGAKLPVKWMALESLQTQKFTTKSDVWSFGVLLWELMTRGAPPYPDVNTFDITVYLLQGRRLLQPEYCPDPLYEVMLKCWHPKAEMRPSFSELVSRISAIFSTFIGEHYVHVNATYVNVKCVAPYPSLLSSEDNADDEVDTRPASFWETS
UniProt P06241, whole entry: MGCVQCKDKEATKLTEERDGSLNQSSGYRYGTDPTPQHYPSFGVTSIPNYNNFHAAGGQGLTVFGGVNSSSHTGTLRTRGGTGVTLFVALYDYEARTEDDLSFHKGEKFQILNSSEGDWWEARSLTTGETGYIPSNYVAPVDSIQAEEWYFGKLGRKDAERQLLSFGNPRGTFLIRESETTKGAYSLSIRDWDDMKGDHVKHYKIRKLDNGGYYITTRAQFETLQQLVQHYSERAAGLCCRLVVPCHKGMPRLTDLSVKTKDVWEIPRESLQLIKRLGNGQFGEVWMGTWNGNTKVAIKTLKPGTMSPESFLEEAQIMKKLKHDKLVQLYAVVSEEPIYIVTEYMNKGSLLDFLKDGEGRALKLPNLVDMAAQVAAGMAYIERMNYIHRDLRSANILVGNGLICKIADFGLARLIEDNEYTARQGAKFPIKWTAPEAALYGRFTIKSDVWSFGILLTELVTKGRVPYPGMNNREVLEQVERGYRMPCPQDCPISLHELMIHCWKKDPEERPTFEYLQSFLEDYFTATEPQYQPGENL

Assays:
Type in all cases: functional
[1] = biological target: Dual specificity protein kinase CLK2 (Homo sapiens, UniProt P49760)
[2] = biological target: High affinity nerve growth factor receptor (Homo sapiens, UniProt P04629);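 also: NTRK1 tested as one member of a kinome-wide profiling panel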
[3] = biological target: Hepatocyte growth factor receptor (Homo sapiens, UniProt P08581);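 also: kinase panel profiling across the kinome, with MET as the panel member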
[4] = biological target: Tyrosine-protein kinase Fyn (Homo sapiens, UniProt P06241)

Ki [1]: active: 3160 nM
Ki [2]: active: 1580 nM
Ki [3]: inactive: > 2510 nM
Ki [4]: active: 158 nM
Compound: CCN1CCN(Cc2ccc(NC(=O)Nc3ccc(Oc4cc(NC)ncn4)cc3)cc2C(F)(F)F)CC1 [AST-487]
